The values below come from patent publication US6579696B1, “Polymyxin B conjugates” (priority 1992, dated 2003).

Series [1] is described as follows: Fluorescence polarization of PMB-FITC alone. To be noted: Table 47; Control (no endotoxin). On the technique in general: In fluorescence polarisation assays a small probe gives low polarisation when free and higher when bound to something large.
For series [2] the following is noted: vancomycin after reaction with crosslinker, aqueous solution.

Consider “PMB-5-Thiocabamoyl-fluorescein [PMB-FITC]”, for which, in the series on E. coli HB101, the “loss of anti-bacterial activity relative to PMB” value is reported as 2—4 fold. The substance also registered a mP in series [1] of 58.5.
With “Sulfosuccinimidyl 4-(N-maleimidomethyl) cyclohexane-1-carbonate:Vancomycin [Vanco:sulfo-SMCC]”, the Soluble entry in series [2] is listed as “No”.
Still for that read-out and setting: to “Bis (sulfosuccinimidyl) suberate:Vancomycin [Vanco:BS^3]” belongs “No”; to “Sulfosuccinimidyl 6-[3-(2-pyridyldithio) propionamide] bexanoate:Vancomycin [Vanco:sulfo-LC SPDP]”, “No”.
With “Sulfosuccinimidyl (4-iodoacetyl) aminobenzoate:Vancomycin [Vanco:sulfo SIAB]”, in series [2], the Soluble result is reported as “No”.
Still for that read-out and setting: the same measure for “m-Maleimidobenzoyl-N-hydrosulfosuccinimide ester:Vancomycin [Vanco:sulfo-MBS]”: “No”.
